The values below are quoted from earlier work in patent publication US20250341526A1, “NOVEL DYES” (Quantum-Si Incorporated, priority 2024, published 2025).

This data set concerns amino acid at a terminal position of a polypeptide. Conditions: Table 2; amino acid at terminal position (phosphotyrosine also internal); inferred from literature and/or demonstrated by the inventors; cited from earlier work.

“Also recorded” adds a separate entry of the source.

Take “H. sapiens p62 protein: amino acid recognition protein, SEQ ID NO: 123”: the “Binding Pref.” value is listed as “K, R, H,; also recorded: W, F, Y”.
